{"sequences": {"note": "Sequences of proteins named here, by UniProt entry; tags and fusion partners are left off. A change or cut given only in a name is not applied to a line headed by its entry.", "UniProt O15379": "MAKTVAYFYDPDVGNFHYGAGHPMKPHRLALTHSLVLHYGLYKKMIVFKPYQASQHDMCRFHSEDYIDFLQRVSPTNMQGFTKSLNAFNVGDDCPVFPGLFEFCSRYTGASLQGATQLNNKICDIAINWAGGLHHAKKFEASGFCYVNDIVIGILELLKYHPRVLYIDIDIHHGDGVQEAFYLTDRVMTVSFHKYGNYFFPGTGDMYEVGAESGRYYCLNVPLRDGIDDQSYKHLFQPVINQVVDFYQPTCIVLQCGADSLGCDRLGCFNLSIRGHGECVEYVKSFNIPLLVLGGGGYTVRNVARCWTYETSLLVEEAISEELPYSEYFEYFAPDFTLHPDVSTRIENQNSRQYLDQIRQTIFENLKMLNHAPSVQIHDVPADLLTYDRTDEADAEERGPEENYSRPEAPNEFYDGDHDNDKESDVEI"}, "source": "patent US12590099B2", "about": "(dated 2026)", "data": [{"molecular_target": "Recombinant human HDAC3/SMRT heterodimer (Homo sapiens, UniProt O15379)", "assay": "Human HDAC enzyme inhibitor Fluor-de-Lys assay, HDAC3/SMRT", "conditions": "HDAC3 IC50 (nM)", "units": {"IC50": "nM"}, "values": [{"smiles": "CCC(=O)CCCCC[C@H](NC(=O)[C@H]1CC12CCN(C)CC2)c1ncc(-c2cnc3cccnc3c2)[nH]1", "note": "[Compound 67]", "IC50": 14.2}]}, {"molecular_target": "Recombinant human HDAC3/SMRT heterodimer (Homo sapiens, UniProt O15379)", "assay": "Human HDAC enzyme inhibitor Fluor-de-Lys assay, HDAC3/SMRT", "conditions": "HDAC3 IC50 (nM), recombinant human HDAC3/SMRT, Fluor-de-Lys assay", "units": {"IC50": "nM"}, "values": [{"smiles": "CCC(=O)CCCCC[C@H](NC(=O)[C@H]1CC12CCN(C)CC2)c1ncc(-c2cnc3cccnc3c2)[nH]1", "note": "[Compound 259]", "IC50": 18.3}, {"smiles": "CCC(=O)CCCCC[C@H](NC(=O)[C@H]1CC12CCN(C)CC2)c1ncc(-c2ccc(-n3nc(C)cc3C)cc2)[nH]1", "note": "[Compound 260]", "IC50": 5.31}, {"smiles": "CCC(=O)CCCCC[C@H](NC(=O)[C@H]1CC12CCN(C)CC2)c1ncc(-c2ccc(C)nc2OC)[nH]1", "note": "[Compound 268]", "IC50": 3.07}, {"smiles": "CCC(=O)CCCCC[C@H](NC(=O)[C@H]1CC12CCN(C)CC2)c1ncc(-c2ccc(-c3cccnc3)nc2)[nH]1", "note": "[Compound 262]", "IC50": 3.36}, {"smiles": "CCC(=O)CCCCC[C@H](NC(=O)[C@H]1CC12CCN(C)CC2)c1ncc(-c2cn(C)c3ccccc23)[nH]1", "note": "[Compound 264]", "IC50": "< 1.5"}, {"smiles": "CCC(=O)CCCCC[C@H](NC(=O)[C@H]1CC12CCN(C)CC2)c1ncc(-c2ccn3ncnc3c2)[nH]1", "note": "[Compound 267]", "IC50": 34.3}, {"smiles": "CCC(=O)CCCCC[C@H](NC(=O)[C@H]1CC12CCN(C)CC2)c1ncc(-c2cnc(-n3cc(C)cn3)nc2)[nH]1", "note": "[Compound 257]", "IC50": 49.7}, {"smiles": "CCOc1ncc(-c2cnc([C@H](CCCCCC(=O)CC)NC(=O)[C@H]3CC34CCN(C)CC4)[nH]2)cn1", "note": "[Compound 266]", "IC50": 74.1}, {"smiles": "CCC(=O)CCCCC[C@H](NC(=O)[C@H]1CC12CCN(C)CC2)c1ncc(-c2ccc(C(=O)NC3CCOC3)cc2)[nH]1", "note": "(some centres unmarked) [Compound 258]", "IC50": 3.35}, {"smiles": "CCC(=O)CCCCC[C@H](NC(=O)[C@H]1CC12CCN(C)CC2)c1ncc(-c2ccnc(N3CCOCC3)c2F)[nH]1", "note": "[Compound 261]", "IC50": 16.4}]}]}
